# Earlier results as cited in US20260053800A1 (Veradermics, Incorporated, priority 2024, published 2026).
# Columns and labels:
# [1] = test system: deoxyribonucleic acid (DNA); settings: cited from earlier work
# [2] = cited from earlier work
compound,measurement,setting,value
Nc1cc(N2CCCCC2)nc(N)[n+]1[O-] [minoxidil],mutagenicity,[1],not mutagenic
same,dose dependence of PK,"[2]; healthy volunteers, 2.5 mg, 5 mg, or 10 mg oral",dose-independent PK
same,absorption from the gastrointestinal tract,"[2]; human, in vivo, po",> 90%
same,radiolabeled drug and metabolites recovered from urine,"[2]; hypertensive patients, within 24 h after oral administration",Over 80%
